Experimental data reported in patent US20120172359A1 (NOVARTIS AG, priority 2010, published 2012).

By UniProt entry, the sequences of proteins in these tests, tags left out. Residues count along the entry.
UniProt P56817, 46-457 limits assumed: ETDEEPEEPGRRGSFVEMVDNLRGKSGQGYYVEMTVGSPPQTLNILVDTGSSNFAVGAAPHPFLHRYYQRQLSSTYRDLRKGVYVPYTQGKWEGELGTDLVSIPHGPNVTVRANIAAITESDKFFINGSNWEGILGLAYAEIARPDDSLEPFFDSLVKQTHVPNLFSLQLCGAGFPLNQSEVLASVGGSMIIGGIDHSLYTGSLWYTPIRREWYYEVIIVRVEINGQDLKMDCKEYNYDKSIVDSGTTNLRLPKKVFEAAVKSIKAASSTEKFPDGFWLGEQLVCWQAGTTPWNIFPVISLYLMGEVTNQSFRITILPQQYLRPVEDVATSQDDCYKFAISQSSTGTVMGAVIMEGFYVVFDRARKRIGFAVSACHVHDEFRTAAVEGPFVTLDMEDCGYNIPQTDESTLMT

Target: Human BACE-1 (Homo sapiens, UniProt P56817)
Test: Test 1: Inhibition of Human BACE-1
Assay type: biochemical
Settings: recombinant BACE-1 (extracellular domain), acetate buffer pH 4.5, 1 hour with test compound at room temperature, fluorescence-quenched peptide substrate

IC50: 58 nM
Compound: CC1(c2cc(NC(=O)c3ccc(Br)cn3)ccc2F)COCC(N)=N1 (stereo not shown) [Example 60, 5-Bromo-pyridine-2-carboxylic acid [3-(5-amino-3-methyl-3,6-dihydro-2H-[1,4]oxazin-3-yl)-4-fluoro-phenyl]-amide hydrochloride]

Where a name gives a salt, the structure may show the parent alone.
